{
  "source": "patent US20260286356A1",
  "about": "“NUCLEIC ACID VACCINE FOR ACTIVATING NKG2C+ NATURAL KILLER CELLS” (priority 2023, published 2026)",
  "molecular_target": "HLA-E (Homo sapiens, UniProt P13747)",
  "assay": "HLA-E surface stabilization assay with RMA-S/HLA-E cells",
  "assay_type": "cell-based",
  "settings": "RMA-S/HLA-E cells incubated with 30 μM peptide, anti-HLA-E antibody",
  "procedure": "Assessment of peptide-HLA-E binding via HLA-E surface stabilization assay with RMA-S/HLA-E cells incubated with 30 μM peptide. HLA-E expression is detected with an anti-HLA-E antibody.\nTo do so, various sequence variants were assessed for their ability to stabilize surface-expressed HLA-E on RMA-S/HLA-E cells, a TAP-deficient mouse tumor cell line engineered to express HLA-E and human β2M (FIG. 3).",
  "data": [
    {"sequence": "RMPPRSVLL", "values": [
      {"measurement": "stabilization of HLA-E surface expression (peptide-HLA-E binding)", "result": "strong stabilization of HLA-E"}
    ]}
  ]
}
